Measurements taken from US20250319032A1, “PHARMACEUTICAL COMPOSITIONS OF RIBOCICLIB” (Novartis AG, priority 2024, published 2025).
Where “and” joins values, the source holds several entries; their conditions need not be identical. Equal entries are not always repeated.

Assay: Validation of the HPLC-HRMS method for N-nitroso-ribociclib (precision, accuracy, linearity, LOQ, stability of standard and sample solutions)
Conditions: for NNR in sample solution, single replicate / NNR in sample solution, Average (ppm): AS at room temperature
Experimental: The method was validated in the range 0.0625 ppm to 12.5 ppm N-nitroso-ribociclib (NRR) with regard to ribociclib free base. For the purpose of this validation only, the 100% target limit was set at 3.75 ppm (1500 ng NRR/400 mg ribociclib free base).
Six replicates of the “Sample solution” were prepared according to the procedure described above and tested on the same day. The results are expressed as ppm of NNR with regard to ribociclib free base (μg NNR/g ribociclib free base)
Two series of six replicates of the “Sample solutions” were prepared according to the procedure described above and tested by two different analysts, on two different days, using different LC/MS systems and different columns. The results are expressed as ppm of NNR with regard to ribociclib free base (μg NNR/g ribociclib free base)
Three replicates of calibration standard solutions L1 (c=0.5 ng/ml) and L6 (c=100 ng/ml) were prepared according to the procedure described above. Solutions were stored in the dark at room temperature (autosampler (AS) vials). After a period of time, the solutions were reanalyzed. The stability of standard solutions is evaluated by determining the relative difference between the responses […] The results are expressed as concentration in ng/ml, determined from calibration curve in each sequence (time point).
Three replicates of Sample solution were prepared according to AP. The replicates were analysed at t=0 h and after app. 24 hours and 48 hours of storage in vials AS at room temperature. The results are expressed as ppm of NNR wrt ribociclib free base. (μg NNR/g ribociclib free base).
In addition, FCT samples stored in flasks on the bench were filtered at defined time point and analysed. For 48 hours stability, composite samples (from Accuracy) were used.
Sample solutions were prepare according to the procedure described above using 10 mL, 25 mL and 50 mL flasks, three replicates for each volume. Results for 25 mL and 50 mL were compared to 10 mL volume that is prescribed in the AP. The results are expressed as ppm of NNR with regard to ribociclib free base (μg NNR/g ribociclib free base)
For ribociclib succinate drug substance, the same drug substance batch (834325A001) was tested unspiked and spiked at three levels in three independent replicates.
For ribociclib FCT, one composite sample preparation and three replicates of spiked composite sample solutions (prepared as described above) were prepared and tested on the same day.
The samples (drug substance or composite sample) were spiked at 0.5 ng/ml (0.0625 ppm), 30 ng/mlL (3.75 ppm) and 100 ng/ml (12.5 ppm) levels. Amount of NNR present in the unspiked sample was subtracted and recoveries were calculated as a ratio between amounts found and amounts added.
Three replicates of calibration solutions that were prepared for different sequences are presented in the Table below and in FIGS. 14A-14D. In each sequence, calibration solution L1 was injected six times as part of SST test (Repeatability of injections) and the average response was taken for the calculation of calibration curve. Linear regression was weighed with 1/amount.
Amount of NNR present in the unspiked sample was subtracted (see above) and RSD of corrected amounts calculated.

| SMILES | NNR in sample solution, single replicate (0 h) | NNR in sample solution, Average (ppm) (24 h) | NNR in sample solution, single replicate (24 h) | NNR in sample solution, Average (ppm) (48 h) | NNR in sample solution, single replicate (48 h) | NNR Average (ppm), Intraday (n = 6) [ppm] | NNR (ppm), Intraday precision, single replicate (sample solution, replicates R1-R6, wrt ribociclib free base) |
| --- | --- | --- | --- | --- | --- | --- | --- |
| CN(C)C(=O)c1cc2cnc(Nc3ccc(N4CCNCC4)cn3)nc2n1C1CCCC1.O=C(O)CCC(=O)O [Ribociclib succinate drug substance] | 0.243 ppm and 0.235 ppm | 0.225 | 0.225 ppm and 0.222 ppm | 0.226 | 0.229 ppm and 0.223 ppm and 0.225 ppm | – | – |
| CN(C)C(=O)c1cc2cnc(Nc3ccc(N4CCNCC4)cn3)nc2n1C1CCCC1.O=C(O)CCC(=O)O [ribociclib succinate drug substance] | – | – | – | – | – | 0.238 | 0.243 ppm and 0.235 ppm and 0.238 ppm and 0.236 ppm |
